# In patent publication US20240269228A1 (priority 2021, published 2024):
# Sequences of proteins named here, by UniProt entry; tags and fusion partners are left off. Residues count along the entry.
# UniProt Q9GZZ6, 25-450 limits assumed: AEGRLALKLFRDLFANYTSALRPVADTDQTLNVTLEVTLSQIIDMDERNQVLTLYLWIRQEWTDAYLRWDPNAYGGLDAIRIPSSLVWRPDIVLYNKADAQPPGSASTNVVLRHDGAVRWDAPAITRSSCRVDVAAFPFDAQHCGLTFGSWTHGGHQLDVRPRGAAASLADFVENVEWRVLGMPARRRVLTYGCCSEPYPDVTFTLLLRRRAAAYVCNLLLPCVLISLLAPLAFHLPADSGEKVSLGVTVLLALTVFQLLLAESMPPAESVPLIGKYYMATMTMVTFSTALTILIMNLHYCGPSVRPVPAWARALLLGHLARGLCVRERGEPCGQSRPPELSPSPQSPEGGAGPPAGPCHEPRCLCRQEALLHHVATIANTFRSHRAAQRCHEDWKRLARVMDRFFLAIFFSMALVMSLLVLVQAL
# UniProt Q9UGM1, 26-479 limits assumed: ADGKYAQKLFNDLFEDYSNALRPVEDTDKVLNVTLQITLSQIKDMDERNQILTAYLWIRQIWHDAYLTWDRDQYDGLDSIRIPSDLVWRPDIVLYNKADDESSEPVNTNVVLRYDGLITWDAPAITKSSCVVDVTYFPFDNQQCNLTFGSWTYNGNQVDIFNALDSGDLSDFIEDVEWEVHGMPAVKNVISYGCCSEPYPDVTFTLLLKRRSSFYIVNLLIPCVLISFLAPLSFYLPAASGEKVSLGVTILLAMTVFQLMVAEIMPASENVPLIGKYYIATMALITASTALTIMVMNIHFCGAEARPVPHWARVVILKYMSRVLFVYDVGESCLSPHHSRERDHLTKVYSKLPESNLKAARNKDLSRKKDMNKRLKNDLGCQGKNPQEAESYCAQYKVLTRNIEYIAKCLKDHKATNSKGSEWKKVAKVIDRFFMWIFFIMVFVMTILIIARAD
# Biological target: human α9α10 nAChR (Homo sapiens, UniProt Q9GZZ6+Q9UGM1)
sequence,measurement,value
G C C S D P R C R Y R C R [RgIA],recovery after 5 min peptide washout,> 99%
